Test results as given in ChEMBL document CHEMBL1127540, “Three-dimensional pharmacophores from binding data” (J Med Chem, 1994).

Molecular target: Human immunodeficiency virus type 1 protease (Human immunodeficiency virus 1, UniProt Q72874)
Assay: Binding affinity to HIV-1 protease

O=C(CCCN1CCC(O)(c2ccc(Cl)cc2)CC1)c1ccc(F)cc1 [HALOPERIDOL]
Ki: 100 µM
